Data taken from EP4840852A1, “DIPHENYLTRIAZINE COMPOUND, PREPARATION METHOD THEREFOR AND USE THEREOF” (dated 2026).
Several values for one entry are separate records, joined by “and”; a condition that tells them apart may be missing. Identical values can stand only once. Marks after values point to notes of the source that are not given here.

Tests used:
TA98 strain = assay: Bacterial reverse mutation assay with 6-well plate, TA98
TA100 strain = assay: Bacterial reverse mutation assay with 6-well plate, TA100; settings: TA100+S9
[1] = TA98-S9, positive control 0.2 µg/well
[2] = TA98-S9, positive control 0.2 µg/well (Table 8)
[3] = TA98+S9, positive control 0.6 µg/well
[4] = TA98+S9, positive control 0.6 µg/well (Table 8)
[5] = positive control 0.6 µg/well (Table 9)

Row | SMILES | Background lawn (TA98 strain; [1]) | Reverse mutation colony Mean (TA98 strain; [1]) | Reverse mutation colony Number per well (TA98 strain; [1]) | Background lawn (TA98 strain; [2]) | Reverse mutation colony Mean (TA98 strain; [2]) | Reverse mutation colony Number per well (TA98 strain; [2]) | Background lawn (TA98 strain; [3]) | Reverse mutation colony Mean (TA98 strain; [3]) | Reverse mutation colony Number per well (TA98 strain; [3]) | Background lawn (TA98 strain; [4]) | Reverse mutation colony Number per well (TA98 strain; [4]) | Background lawn (TA100 strain; positive control 0.6 µg/well) | Reverse mutation colony Mean (TA100 strain; positive control 0.6 µg/well) | Reverse mutation colony Number per well (TA100 strain; positive control 0.6 µg/well) | Background lawn (TA100 strain; [5]) | Reverse mutation colony Mean (TA100 strain; [5]) | Reverse mutation colony Number per well (TA100 strain; [5])
1 | O=[N+]([O-])c1ccc2c(c1)Cc1ccccc1-2 | T0 | 114. 0* | 112 and 116 | T0 | 114. 0 * | 112 and 116 | – | – | – | – | – | – | – | – | – | – | –
2 | Nc1ccc2cc3ccccc3cc2c1 | – | – | – | – | – | – | T0 | 348. 0* | 344 and 352 | T0 | 344 and 352 | T0 | 454 | 444 and 464 | T0 | 454 · | 444 and 464
